Ends that are not written are not given here.
These molecules were tested on splenic CD8+ T cells from DENV3 (D3S5CX) infected HLA transgenic IFN-α/βR−/− mice (assay: IFNγ ELISPOT, CD8+ T cells of DENV3 (D3S5CX) infected HLA class I transgenic IFN-α/βR−/− mice). Conditions: HLA B*4001 transgenic IFN-α/βR−/− mice, day 7 after DENV3 D3S5CX; SFC/10^6 T cells.
Format: cell-based, mouse
In the case of AEQTGVSHNL [NS2B1412-1421], the “T cell response [SFC]” value is reported as 362 SFC.
In the case of `CC[C@H](C)[C@H](NC(=O)[C@@H](NC(=O)[C@H](CCC(N)=O)NC(=O)[C@@H](NC(=O)[C@H](CCC(=O)O)NC(=O)[C@H](CCC(=O)O)NC(=O)CN)C(C)C)C(C)C)C(=O)N[C@@H](C)C(=O)N[C@H](C(=O)O)C(C)C` [NS31569-1577], the “T cell response [SFC]” value is reported as 293 SFC.
With GEIGAIALDF [NS31598-1607] the “T cell response [SFC]” value was 289 SFC.
